The test system of this assay is CD4+ T cell clone 1D6. As to the kind of experiment: CD4+ T cell clone activation assay, NY-ESO-1 118-143 constructs, autologous LCL as APC. The class given is cell-based, human. The conditions noted are these: LCL pulsed with construct; 147 tested +/−P3C; 116 and 115 titratable (FIG. 13). How it is done:
Human CD4+ and CD8+ T cell clones were maintained at a concentration of 1-3×10^6/ml in RPMI 1640 supplemented with Glutamax, Penicillin/Streptomycin and 5% v/v human serum (“RS5”, all reagents from Life Technologie). Media was refreshed 50% v/v twice weekly. RS5 for CD4+ T cell clones was supplemented with IL-7 and IL-21, and RS5 for CD8+ T cell clones was supplemented with IL-7+IL-15 (all cytokines from PeproTech, used at a final concentration of 5 ng/ml).
Epstein-Barr Virus (“EBV”)-producing B95-8 MM cells were grown in RPMI 1640 supplemented with Glutamax, Penicillin/Streptomycin and 10% v/v fetal bovine serum (“RF10”, all reagents from Invitrogen) in T75 flasks (BD Biosciences). EBV-containing medium was collected and centrifuged to pellet non-adherent cells, and the EBV-containing supernatant then filter-sterilised (0.22 μm). 10×10^6 donor Peripheral Blood Mononuclear Cells (“PBMC”) were suspended in 1.5 ml RF10 in aT25 flask (BD Biosciences). […] Flasks were monitored for outgrowth of B cell LCL, typically over 4-6 weeks, with transfer to a T75 flask (BD Biosciences) when required. […]
Data acquisition was performed using a BD FACSAria II with FACSDiva software, and data analysis was performed using FlowJo software (Treestar). Data were presented as the median fluorescence intensity (MFI)+SD of CD25 and CD134 expression on live clonal cells. […]

On to “p121-138: NY-ESO-1 residues 121-138 peptide, pulsed on LCL at 1 μM as positive control [reference compound]”, for which the “response of clone 1D6” value is listed as “responds well”.

For the origin of these results see patent US10576144B2, “Amino acid and peptide conjugates and conjugation process” (AUCKLAND UNISERVICES LIMITED, priority 2014, dated 2020).
